scFv variants of Ab-91 (heavy chain) against a SARS-CoV-2 spike peptide

All variants were tested on one target, the spike HR2 peptide PDVDLGDISGINAS (SARS-CoV-2).

Parent scFv Ab-91: VL joined to VH by the linker GGGGSGGGGSGGGGS. Changes lie in the heavy chain CDRs alone.
VL: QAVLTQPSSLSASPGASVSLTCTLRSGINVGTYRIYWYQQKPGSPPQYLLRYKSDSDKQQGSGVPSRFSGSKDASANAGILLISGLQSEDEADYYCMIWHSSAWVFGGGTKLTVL
VH: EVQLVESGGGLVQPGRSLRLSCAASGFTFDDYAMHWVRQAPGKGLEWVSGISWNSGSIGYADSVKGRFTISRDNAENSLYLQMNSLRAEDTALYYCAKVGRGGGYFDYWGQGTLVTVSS

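Variants in AAYL51 differ from the parent at up to three CDR positions; double and triple changes were sampled at random. In AlphaSeq, yeast of one mating type display the scFv and yeast of the other type display the target. The frequency of each diploid, read from paired DNA barcodes, reflects how well the two displayed proteins bind. Scores were corrected for input abundance and mapped to Kd with protein pairs of known affinity run in the same pool. Mating was done three times.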

Changes read parent residue, position, new residue, counted from the first residue of the VH shown. The Kd shown is the geometric mean over detected replicates; a lower Kd is a better binder. "nd" means that the variant was in the library but no mating with the target was seen in any replicate; the authors take this as a sign of poor binding, and no number exists.

changes,Kd,seen in,signal with controls
S52W Y60W A61P,nd,0 of 3,0 of 9
Y32E S63Q,84 µM,3 of 3,3 of 9
D31C Y60Q G104H,nd,0 of 3,0 of 9
F27C F29W D107I,41 µM,1 of 3,1 of 9
M34N I58L R101T,85 µM,2 of 3,4 of 9
D62I G104W Y105S,81 nM,3 of 3,0 of 9
W53E S63Y,11 µM,1 of 3,3 of 9
G26F A33V M34F,nd,0 of 3,0 of 9
F27Q Y32R Y108E,1.6 µM,1 of 3,0 of 9
A61W G103N Y108F,170 µM,2 of 3,4 of 9
W53C G56E G59D,nd,0 of 3,4 of 9
F29M Y60H R101N,nd,0 of 3,1 of 9
H35M G59S,97 µM,3 of 3,4 of 9
T28I Y60V G103E,nd,0 of 3,1 of 9
I51G G59W S63W,40 µM,1 of 3,1 of 9
H35K S63E,nd,0 of 3,1 of 9
A33K H35L G103Y,nd,0 of 3,1 of 9
I58N F106N Y108I,9.7 µM,2 of 3,1 of 9
T28R I58V D62H,160 nM,3 of 3,8 of 9
T28Y D30K Y108A,nd,0 of 3,3 of 9
F27G M34G I58E,29 µM,1 of 3,0 of 9
I51R S57H G100S,20 µM,1 of 3,5 of 9
F29N G50C Y105D,nd,0 of 3,0 of 9
D30Y S63E,17 µM,2 of 3,2 of 9
H35C Y105A,240 µM,3 of 3,6 of 9
S55Q G102C F106T,49 µM,1 of 3,2 of 9
G56T K65W D107W,1.1 µM,1 of 3,0 of 9
D62G D107C,83 µM,1 of 3,3 of 9
D31C I58P V64P,67 µM,3 of 3,2 of 9
S55K G104C Y108N,nd,0 of 3,0 of 9
W53I A61M Y105F,nd,0 of 3,1 of 9
F27D G59S S63L,21 µM,1 of 3,4 of 9
D31M I51N G56R,290 µM,3 of 3,3 of 9
H35E I51P Y108I,58 µM,2 of 3,2 of 9
D31A D62F,nd,0 of 3,0 of 9
Y32R S63R G102K,nd,0 of 3,1 of 9
S55K G59N F106M,85 µM,2 of 3,7 of 9
I51R S52M G100K,nd,0 of 3,0 of 9
Y32C S55C S57Y,130 µM,2 of 3,1 of 9
A33R H35N S57L,5.5 µM,1 of 3,4 of 9
H35D A61M G103Y,nd,0 of 3,3 of 9
G26P S55K R101H,nd,0 of 3,1 of 9
R101A G104W D107K,nd,0 of 3,2 of 9
I51Q Y60E Y108G,28 µM,1 of 3,2 of 9
F27A N54E G56S,nd,0 of 3,0 of 9
G26R Y60G V64D,240 µM,2 of 3,7 of 9
G50C D62K G102I,nd,0 of 3,2 of 9
F27C M34I S55W,nd,0 of 3,0 of 9
A33N K65G R101N,73 µM,2 of 3,1 of 9
G26T D107R Y108H,nd,0 of 3,2 of 9
S57G K65D D107Q,420 nM,3 of 3,2 of 9

Picked from the list: the 4 lowest averages where every replicate gave a value.

changes,Kd,seen in,signal with controls
D62I G104W Y105S,81 nM,3 of 3,0 of 9
T28R I58V D62H,160 nM,3 of 3,8 of 9
S57G K65D D107Q,420 nM,3 of 3,2 of 9
D31C I58P V64P,67 µM,3 of 3,2 of 9

As a blank, each scFv also met three strains without target: over library AAYL51, 21% of these pairings were detected, typically at 34 µM and seldom below 1.8 µM. The control count says in how many pairings with the empty strains this scFv gave a signal. In this assay the parent's reference entry averaged 72 nM; its copy inside this library read 7.5 nM.

Data: MIT Lincoln Laboratory AlphaSeq set, Engelhart et al. 2022, doi:10.1038/s41597-022-01779-4, as distributed in FLAb.